Reference: patent US9726669B2, “Biomarkers for determining sensitivity of breast cancer cells to HER2-targeted therapy” (PIERIAN HOLDINGS, INC., priority 2009, dated 2017)

Experiments:
p95HER2 = settings: Xia 2004; cited from earlier work
BT474 cells = test: ErbB pathway activation/expression in Herceptin-sensitive BT474 cells, multiplexed proximity immuno-microarray and Western blot; type: cell-based, human
BT/R cells [1] = test: Cell growth of Herceptin-resistant BT/R cells; type: cell-based, human
From the text: The cells were lysed and the protein concentration determined by BCA protein assay.

BT/R cells [2] = test: ErbB pathway activation/expression in Herceptin-resistant BT/R cells, multiplexed proximity immuno-microarray and Western blot; type: cell-based, human
HER2-positive BCA = settings: trastuzumab-complemented treatments; Nahta and Esteva 2006; cited from earlier work
[3] = BT474 cells with Herceptin treatment
[4] = BT/R cells with Herceptin treatment
[5] = BT/R compared to BT474 cells upon Herceptin treatment

## trastuzumab [Herceptin]
p95HER2
  activation of p95: not inhibited
BT474 cells; [3]
  HER1/2 dimer: downregulated
  HER2/2 dimer: downregulated
  HER2/3 dimer: downregulated
  p95/HER3 levels: no change
  phospho-HER3: reduction; also recorded: reduced
  phospho-SHC: reduction
BT474 cells; BT474 cells, Herceptin treatment vs without Herceptin
  total HER2 levels: moderate decrease; also recorded: decreased
BT474 cells; BT474 cells, Herceptin treatment vs without Herceptin, 100 μg/ml, 2, 8, 24 hours
  phosphorylation of HER2: significant inhibition and inhibition and reduced and not
BT474 cells; sensitive (BT474) cells treated with Herceptin for different times
  level of activation of truncated HER2 (phosphorylated p95HER2): not
BT474 cells; sensitive BT474 cells treated with Herceptin
  expression of total p95HER2: decreased
BT/R cells [1]
  cell growth: does not inhibit
BT/R cells [2]; BT/R cells treated with Herceptin
  phosphorylation (activation) of full length HER2: does not inhibit; also recorded: increases
BT/R cells [2]; [4]
  HER1/2 dimer: downregulated
  HER2/3 dimer: downregulated
  p95/HER3 dimer: increased and then stabilized
  phospho-HER3: reduction
  phospho-SHC: reduction
BT/R cells [2]; BT/R cells, Herceptin treatment vs without Herceptin
  total HER2 levels: moderate decrease; also recorded: decreased
BT/R cells [2]; [5]
  activation (phosphorylation) of p95HER2, resistant vs sensitive cells: significantly higher activation; also recorded: significant difference; also recorded: significantly higher phosphorylation
  activation of HER2, resistant vs sensitive cells: significantly higher activation; also recorded: increased activation
  activation of HER3, resistant vs sensitive cells: Increased activation; also recorded: higher in resistant cells at early time points
  activation of PI3K, resistant vs sensitive cells: increased activation; also recorded: higher in resistant cells at early time points; also recorded: significantly higher activation
BT/R cells [2]; Herceptin-resistant BT474 cells vs Herceptin-sensitive cells when treated with Herceptin
  p95HER2-mediated pathway activation, resistant vs sensitive cell population: approximately 5 fold
BT/R cells [2]; Herceptin-resistant cell population when treated with Herceptin
  HER1 activation: weak
BT/R cells [2]; resistant (BT/R) cells treated with Herceptin for different times
  level of activation of truncated HER2 (phosphorylated p95HER2): increases
BT/R cells [2]; resistant cells treated with Herceptin
  expression of total p95HER2: decreased
HER2-positive BCA
  HER2-positive patients initially responding: approximately 50%

Entries after “also recorded” stand apart in the source; their conditions may differ.
